Experimental data taken from publication PMC6270727, “Anticholinesterase Inhibitory Activity of Quaternary Alkaloids from Tinospora crispa” (Molecules, 2014).

Amino acid sequences for entries named in this document (tags omitted). Residues count along the entry.
UniProt O42275, 24-633: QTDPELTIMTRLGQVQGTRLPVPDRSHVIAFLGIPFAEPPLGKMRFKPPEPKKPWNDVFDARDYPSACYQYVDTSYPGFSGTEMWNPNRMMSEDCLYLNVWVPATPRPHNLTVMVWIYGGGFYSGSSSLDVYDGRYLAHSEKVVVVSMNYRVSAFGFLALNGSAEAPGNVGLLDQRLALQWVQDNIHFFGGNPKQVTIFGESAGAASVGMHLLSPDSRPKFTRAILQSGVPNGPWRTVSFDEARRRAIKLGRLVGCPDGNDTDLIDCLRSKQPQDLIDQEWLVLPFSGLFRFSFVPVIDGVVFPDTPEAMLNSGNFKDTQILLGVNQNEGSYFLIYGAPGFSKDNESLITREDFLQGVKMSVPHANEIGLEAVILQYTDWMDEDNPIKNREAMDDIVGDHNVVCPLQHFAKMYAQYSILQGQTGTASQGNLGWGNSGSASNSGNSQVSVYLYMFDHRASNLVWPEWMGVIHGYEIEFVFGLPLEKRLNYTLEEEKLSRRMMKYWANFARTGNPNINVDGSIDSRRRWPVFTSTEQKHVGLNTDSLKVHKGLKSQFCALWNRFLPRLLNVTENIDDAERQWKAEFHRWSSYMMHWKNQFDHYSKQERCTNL

Target: T1, acetylcholinesterase (AChE) from electric eels (type V-S) (Electrophorus electricus, UniProt O42275)
T1 construct: purchased Sigma-Aldrich (St. Louis, MO, USA) type V-S (catalogue number not given)
Assay: Acetylcholinesterase (AChE) inhibitory assay, modified Ellman's colorimetric method, 96-well microplate
Format: biochemical

Work on `CNC(=O)Oc1ccc2c(c1)[C@]1(C)CCN(C)[C@@H]1N2C` [Physostigmine, reference compound] yielded an IC50 of 31.4 ± 0.5 µM.
